Test results published in patent publication US6417247B1, “Polymer/ceramic composites” (priority 1997, dated 2002).

Assay: Release of model compounds from chitosan-calcium phosphate composites in PBS
Details: chitosan-TCP composite, PBS pH 7.4, 37° C., FIG. 12

bovine serum albumin [BSA]
time over which the model compound was released from the composite: 40 h
